Test results: patent EP0951284B1, “[…] DERIVATIVES” (priority 1996, dated 1998)

The chains behind the UniProt entries cited, without tags or fusion partners.
UniProt P19643, whole entry: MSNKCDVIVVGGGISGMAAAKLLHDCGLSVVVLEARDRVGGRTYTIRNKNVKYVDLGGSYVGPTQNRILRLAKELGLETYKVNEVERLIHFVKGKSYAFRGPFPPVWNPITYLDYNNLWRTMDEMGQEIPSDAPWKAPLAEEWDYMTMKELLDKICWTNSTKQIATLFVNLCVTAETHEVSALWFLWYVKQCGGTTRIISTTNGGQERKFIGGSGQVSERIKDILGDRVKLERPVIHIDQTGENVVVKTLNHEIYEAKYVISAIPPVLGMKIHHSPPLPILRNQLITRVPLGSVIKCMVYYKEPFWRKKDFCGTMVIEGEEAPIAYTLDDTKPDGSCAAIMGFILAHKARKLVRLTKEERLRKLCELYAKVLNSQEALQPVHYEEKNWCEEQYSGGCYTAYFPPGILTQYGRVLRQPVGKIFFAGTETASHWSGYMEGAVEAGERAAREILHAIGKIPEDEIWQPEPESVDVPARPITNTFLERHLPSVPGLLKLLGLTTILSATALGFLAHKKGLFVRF

Target: MAO-B (Rattus norvegicus, UniProt P19643)
Assay: Inhibition of MAO activity in vitro, rat brain homogenate, PEA substrate
Settings: read-out: MAO-B Inhibition In vitro IC50, PEA 50µM, tested form: HCl

## CCCN(C)C(=O)Oc1cccc(CCN)c1
  IC50: > 1000 µM
